# Reference: article PMC12374581 (European journal of medicinal chemistry, 2025)
# Assay: Solubility observed for in vivo dosing
substance,measurement,value
Buprenorphine [reference compound],solubility (in words),poorly soluble
